Source: PubChem (Broad Institute)
Rows were chosen to be rich in hits. Some 1.7% of all compounds tested hit in one or more screens of this group.
CAL PDZ FP-1 – human CAL PDZ-peptide interaction inhibition; Q9HD26; purified CAL PDZ, TMR-peptide fluorescence polarization, 1 h; inhibition, % at 20 µM; hit rate 0.02% among 330,000; AID 504414;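 active means highest replicate inhibition of at least 40%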;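 further: plate controls were DMSO neutral control wells for no effect and unlabeled competitor peptide control wells for full effect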
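Material – purified CerCALP PDZ construct · Detection – FP readout, S and P plane fluorescence · Measure – percent inhibition from loss of millipolarization · Controls – unlabelled peptide for full inhibition, DMSO wells as neutral · Probe or stimulus – TMR-labelled reporter peptide T*-PRC34 bound in PDZ groove · Times – 1 h at RT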
Dyrk1A ADPGlo – Dyrk1A (rat) kinase inhibition | ADP-Glo luminescence, NFATc1 peptide | inhibition, % at 12.5 µM | hit rate 0.43% among 310,000 | AID 504441; in the data active means inhibition above about 50%;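 further: plate controls were vehicle with enzyme for no effect and no enzyme for full effect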
CAL PDZ FP-2 – CAL PDZ (human) peptide binding inhibition. purified CAL PDZ, TMR-peptide fluorescence polarization, 1 h. inhibition, % at 24.9 µM. Q9HD26. hit rate 0.92% among 300,000;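 active means mean inhibition of at least 30% with at least half of replicates also reaching 30%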;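 further: 0% = DMSO neutral control and 100% = excess unlabeled competitor peptide PRC23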
CDK5 p35 inh – blocks human CDK5/p35 kinase activity; Recombinant CDK5/p35, ADP-Glo luminescence, 60 min; AID 488839; hit rate 0.01% among 330,000; inhibition, % at 10 µM; Q00535+Q15078;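 active means highest replicate inhibition of at least 50% and at least 75% of replicates reaching 50%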;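 further: plate controls were DMSO neutral control for no effect and GW8510 at 10 µM for full effect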
Yeast UUG start – modulators of yeast start codon fidelity, primary screen, whole organism, S. cerevisiae, single point, plate reader | AID 602363, 2012 | S. cerevisiae UUG-firefly luciferase reporter, luminescence/redox ratio | activity score, % at 18.7 µM | hit rate 0.13% among 350,000;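 active = replicate mean at a twofold rise or more, about +100% in these data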;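 also: firefly luciferase made from a UUG start codon reports start codon fidelity; reporter light over untreated wells divided by growth signal over untreated wells; some hits fall short of that in this replicate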
dFosB act – enhances mouse delta FosB homodimer DNA binding; purified delta FosB, TAMRA-CDK5 oligo fluorescence polarization; percent of positive-control signal above neutral wells; activation, % at 25 µM; hit rate 0.99% among 340,000; P13346;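 active means mean activation above about 17%, with every replicate also reaching it, limit read from the data, passing the limit was not always enough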
Active calls of the source: *; nt = not tested or not shown.

Structure	Dyrk1A ADPGlo	CDK5 p35 inh	CAL PDZ FP-1	Yeast UUG start	CAL PDZ FP-2	dFosB act
CCCNC(=O)C[C@H]1C[C@@H]2c3cc(NS(=O)(=O)c4ccc(F)cc4)ccc3O[C@@H]2[C@@H](CO)O1	nt	nt	nt	10	nt	nt
C=CCOc1ccc(Br)cc1CNCCO	1	-1	-1	nt	98*	-1
COc1ccc(NC(=O)Nc2nnc(C(C)(C)C)s2)cc1	-2	1	-1	nt	47*	-3
Cn1cnc(S(=O)(=O)N2C[C@@H](O)COC[C@@H]3O[C@H](CC(=O)NCc4cc(F)cc(F)c4)CC[C@H]32)c1	nt	nt	nt	6	nt	nt
COc1cccc(C(=O)Nc2c3c(nn2-c2ccccc2C)CS(=O)C3)c1OC (configuration not stated)	1	0	nt	-18	3	-4
Cc1ccccc1-n1nc2c(c1NC(=O)c1cc3ccccc3oc1=O)CS(=O)C2 (configuration not stated)	13	0	nt	-9	97*	-1
COc1cc2c3nnc(-c4ccc(F)cc4)c-3cn(Cc3ccccc3)c2cc1OC	3	-4	1	-13	nt	19*
COc1ccc(Cn2cc3c(-c4ccc(F)cc4)nnc-3c3cc(OC)c(OC)cc32)cc1	16	0	8	-20	nt	34*
Cn1nc2c3cc(F)ccc3n(Cc3ccc(F)cc3)cc-2c1=O	4	0	-3	nt	-1	-2
C[C@H]1CCCCO[C@@H](CN(C)C(=O)Nc2ccc(C(F)(F)F)cc2)[C@@H](C)CN([C@@H](C)CO)C(=O)c2cc(NC(=O)Nc3ccccc3)ccc2O1	nt	nt	nt	-10	nt	nt
O=C(Nc1ccccc1C(=O)N1CCN(c2ccccc2)CC1)c1ccco1	0	1	0	-13	47*	-8
Cc1ccc(C(=O)OCC(=O)Nc2ccccc2)cc1NC(=O)c1ccco1	-14	0	-1	-12	3	27*
CNC[C@H]1Oc2ccc(NC(=O)Nc3ccc(OC)cc3)cc2CC(=O)N([C@H](C)CO)C[C@@H]1C	nt	nt	nt	2	nt	nt
Cc1noc(C)c1NC(=O)Nc1ccc2c(c1)C(=O)N([C@H](C)CO)C[C@H](C)[C@@H](CN(C)S(=O)(=O)c1ccccc1)OCCCC[C@@H](C)O2	nt	nt	nt	-5	nt	nt
COC(=O)C1(C(F)(F)F)N=C(N(C)C)OC(N(C)C)=N1	-2	1	-2	-15	42*	-5
CO[C@H]1CN(C)C(=O)c2ccc(NC(=O)C3CCOCC3)cc2OC[C@@H](C)N(Cc2cccnc2)C[C@@H]1C	nt	nt	nt	0	nt	nt
COc1cc(/C=C2\C(=O)ON=C2c2ccccc2)cc(Cl)c1O	0	-1	-1	nt	0	18*
CCCNC(=O)N(C)C[C@@H]1Oc2ncc(C#Cc3ccncc3)cc2C(=O)N([C@@H](C)CO)C[C@H]1C	nt	nt	nt	-13	nt	nt
CCC(C)OC(=O)c1[nH]c2c(c1C)C(=O)CC(c1ccc(N(C)C)cc1)C2 (configuration not stated)	3	2	-1	-3	0	29*
CCOCCOC(=O)c1[nH]c2c(c1C)C(=O)CC(c1ccc(N(C)C)cc1)C2 (configuration not stated)	6	2	1	-21	nt	0

2 of the compounds above, with each value named:
COc1ccc(Cn2cc3c(-c4ccc(F)cc4)nnc-3c3cc(OC)c(OC)cc32)cc1
  Dyrk1A ADPGlo = 16; CDK5 p35 inh = 0; CAL PDZ FP-1 = 8; Yeast UUG start = -20; CAL PDZ FP-2 = nt; dFosB act = 34*

Cn1nc2c3cc(F)ccc3n(Cc3ccc(F)cc3)cc-2c1=O
  Dyrk1A ADPGlo = 4; CDK5 p35 inh = 0; CAL PDZ FP-1 = -3; Yeast UUG start = nt; CAL PDZ FP-2 = -1; dFosB act = -2

Other records follow:
Structure	Dyrk1A ADPGlo	CDK5 p35 inh	CAL PDZ FP-1	Yeast UUG start	CAL PDZ FP-2	dFosB act
C/C=C/COC(=O)c1[nH]c2c(c1C)C(=O)CC(c1ccc(N(C)C)cc1)C2 (configuration not stated)	15	0	0	-11	nt	85*
CCOC(=O)CCn1c(=S)n(CCC(=O)OCC)c2ccccc21	nt	2	1	nt	55*	-6
COc1cc(OC)c(-c2c3cc(O)c(=O)cc-3oc3cc(O)c(O)cc23)cc1OC	2	6	-4	nt	-97	22*
Cc1c2cc(O)c(=O)cc-2oc2cc(O)c(O)cc12	13	3	10	-10	nt	-250
CNC[C@@H]1Oc2c(cccc2N(C)C)C(=O)N([C@H](C)CO)C[C@H]1C	nt	nt	nt	-14	nt	nt
COC(=O)[C@H]1[C@H](CO)[C@H]2Cn3c(ccc(C4=CCCCC4)c3=O)[C@H]2N1C(=O)C1CC1	nt	nt	nt	13	nt	nt
COc1ccc(CCNC(=O)Cc2ccsc2)cc1	9	-1	-2	-10	37*	-3
Cc1cc(C)cc(NC(=O)CSc2nc(=O)n(CCN3CCOCC3)c3c2CCCC3)c1	9	-2	-1	nt	52*	-4
Cc1cc(C)c(NC(=O)CSc2nc(=O)n(CCN3CCOCC3)c3c2CCCC3)c(C)c1	4	0	-4	-8	-10	-6
